Literature values as cited in patent US7090866B2.
This is a selection: effects in other tests are not listed, and their absence says nothing.

Settings: intravenous dose

CCC(=O)N(c1ccccc1)C1CCN(CCc2ccccc2)CC1
dose recovered in urine as the unchanged drug: less than 10%
